From paper PMC2096555 (Purinergic Signalling, 2005)

Target: T1, rat NTPDase3 (Rattus norvegicus, UniProt A6I415)
T1 sequence (A6I415 1-529): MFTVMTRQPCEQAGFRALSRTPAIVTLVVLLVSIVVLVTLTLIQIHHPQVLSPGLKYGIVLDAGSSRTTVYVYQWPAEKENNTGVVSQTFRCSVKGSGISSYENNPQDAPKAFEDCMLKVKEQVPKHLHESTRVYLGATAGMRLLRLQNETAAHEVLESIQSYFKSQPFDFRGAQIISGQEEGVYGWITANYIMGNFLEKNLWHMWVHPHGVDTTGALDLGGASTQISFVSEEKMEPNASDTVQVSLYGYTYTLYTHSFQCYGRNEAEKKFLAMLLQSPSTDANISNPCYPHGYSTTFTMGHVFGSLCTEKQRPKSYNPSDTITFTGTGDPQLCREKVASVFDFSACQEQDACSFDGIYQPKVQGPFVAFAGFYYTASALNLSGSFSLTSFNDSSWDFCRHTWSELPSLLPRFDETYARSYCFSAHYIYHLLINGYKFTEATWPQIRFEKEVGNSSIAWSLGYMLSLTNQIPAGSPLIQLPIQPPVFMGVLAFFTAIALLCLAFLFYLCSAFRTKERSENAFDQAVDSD
Format: biochemical
Conditions: ratio of Ki values

factor by which Ki is lower for NTPDase3 than for NTPDase1 and NTPDase2: 20 fold
Structure (SMILES): Nc1c(S(=O)(=O)O)cc(Nc2ccc(Nc3nc(Cl)nc(Nc4cccc(S(=O)(=O)O)c4)n3)c(S(=O)(=O)O)c2)c2c1C(=O)c1ccccc1C2=O [RB2, reactive blue 2]
